Reference: PMC9962794, “A Novel and Functionally Diverse Class of Acetylcholine-Gated Ion Channels” (The Journal of Neuroscience, 2023)

Sequences of proteins named here, by UniProt entry; tags and fusion partners are left off. Residues count along the entry.
UniProt Q21005, 25-466: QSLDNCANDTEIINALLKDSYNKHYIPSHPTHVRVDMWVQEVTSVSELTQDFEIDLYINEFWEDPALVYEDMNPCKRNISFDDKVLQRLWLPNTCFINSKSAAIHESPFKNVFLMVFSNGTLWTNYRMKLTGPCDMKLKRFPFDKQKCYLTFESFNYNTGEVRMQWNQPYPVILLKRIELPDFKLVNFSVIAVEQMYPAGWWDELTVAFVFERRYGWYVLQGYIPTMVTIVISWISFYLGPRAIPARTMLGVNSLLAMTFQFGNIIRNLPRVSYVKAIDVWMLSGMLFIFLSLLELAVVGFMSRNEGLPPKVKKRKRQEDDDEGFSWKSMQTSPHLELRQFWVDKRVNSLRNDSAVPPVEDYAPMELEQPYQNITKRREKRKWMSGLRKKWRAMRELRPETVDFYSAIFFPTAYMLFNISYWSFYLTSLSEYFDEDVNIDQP

Target: ACC-1 (Caenorhabditis elegans, UniProt Q21005)
Conditions: agonist; ND96, clamped at -60 mV; ACC-1 expressed alone

SMILES: CC(=O)OCC[N+](C)(C)C [acetylcholine]
- EC50: ACh-induced dose–response curves for oocytes expressing ACC-1 alone or in combination with LGC-47
